Target: cGMP-specific 3',5'-cyclic phosphodiesterase (Homo sapiens, UniProt O76074)
Assay: Inhibitory activity against PDE5 from human corpus cavernosum

Ki: 24 nM
SMILES: Cc1ncc(-c2cnc(N3CCc4c([nH]c5ccccc45)C3c3ccc4c(c3)CCO4)nc2)n1C (stereo unspecified)

Reference: ChEMBL document CHEMBL1136605, “Synthesis and biological activities of novel beta-carbolines as PDE5 inhibitors” (Bioorg Med Chem Lett, 2003)
